The target of assay [1] is HLA DQ molecule DQB1*0502 (human). In words: inhibition of radiolabeled peptide binding to purified HLA class II.
Assay [2] has as its target HLA DQ molecule DQB1*0602 (human). Described as above.
Assay [3] addresses HLA DQ molecule DQB1*0202 (human). Described as above.
Assay [4] addresses HLA-DQ molecule DQB1*0201 (human). In words: inhibition of radiolabeled peptide binding to purified HLA-DQ.

Turning to “Pen ch 18 (226-240) peptide …, Peptide ID 3324.1330”, the concentration for half-maximal inhibition (IC50) was found to be 10100 nM in assay [1], 1580 nM in assay [2] and 9490 nM in assay [3].

In assay [1], “Asp f 17 (91-105) peptide …, Peptide ID 3324.0212” displayed a concentration for half-maximal inhibition (IC50) of 1380 nM.

For Lol p 1 (176-190) peptide …, the IC50 in assay [4] came to 1400 nM.

Usually IC50 stands for the concentration that inhibits the measured activity by half.
